Consider one compound from paper PMC2801547 (Journal of medicinal chemistry, 2009).

In the experiment the test system is WiDr colorectal adenocarcinoma cells. Nature of the experiment: cells. To be noted: Homo sapiens, 72 h.

Each structure is given as a SMILES string.

As a reminder, the IC50 is the midpoint of a concentration-inhibition curve. A lower IC50 goes with greater potency.

`CC(/C=C/[C@@H]1C[C@]2(CO2)CC(C)(C)O1)=C\C[C@H]1CC[C@@H](NC(=O)/C=C\[C@H](C)OC(=O)N2CCN(C3CCCCCC3)CC2)CC1` [compound 7, (S,Z)-5-((1R,4R)-4-((2E,4E)-5-((3R,5S)-7,7-dimethyl-1,6-dioxaspiro[2.5]octan-5-yl)-3-methylpenta-2,4-dienyl)cyclohexylamino)-5-oxopent-3-en-2-yl 4-cycloheptylpiperazine-1-carboxylate]: the IC50 lay in the range of 4 to 5 µM.
